Reference: patent US20260382690A1, “Dual-Domain Peptide for Depleting HMGB1 from the Circulation via Liver HSPG System” (published 2026)

System: GSNOR
Test: Lung GSNOR dehydrogenase activity in homogenates of treated SS mice (NADH consumption)
Conditions: 3 weeks, hE-HMGB1-BP or KYC; for lung GSNOR dehydrogenase activity versus AA mice: ns; for decrease of lung GSNOR dehydrogenase activity: p<0.05
Excerpt: FIGS. 6A-6D. Effects of SCA and hE-HMGB1-BP and KYC Treatments on CD31 and GSNOR Lung Expression. (FIG. 6A) Lung Sections from AA and SS mice immunostained for CD31 and GSNOR. Representative merged lung sections (three each) from AA and SS mice treated with PBS, hE-HMGB1-BP, or KYC test groups. Sections were immunostained for CD31 (green), GSNOR (red), and nuclei (blue—DAPI). (FIG. 6B) Relative fluorescence intensities for CD31 were randomly captured from five to four regions. CD31 fluorescence intensities were determined using NIH Image J, tested for outliers, and averaged. Average intensities for CD31 in each lung were plotted as scatter plots in bars (mean±SD) for AA and SS mice treated with PBS, hE-HMGB1-BP, and KYC. ANOVA was used to analyze, with an appropriate post hoc test, differences between means (AA, n=4; SS+PBS, n=4; SS+hE-HMGB1-BP, n=4; and, SS+KYC, n=3, ***=p<0.001, **=p<0.05). (FIG. 6C) Relative fluorescence intensities for GSNOR were randomly captured from five to four regions. GSNOR fluorescence intensities were determined using NIH Image J, tested for outliers, and averaged. Average intensities for GSNOR in each lung were plotted as scatter plots in bars (mean±SD) for AA, SS mice treated with PBS, hE-HMGB1-BP, and KYC, showing the mean±SD for each test group. ANOVA was used to analyze differences between means with an appropriate post hoc test (AA, n=4; SS+PBS, n=4; SS+hE-HMGB1-BP, n=4; and SS+KYC, n=3, **=p<0.05, *=p<0.05). (FIG. 6D) GSNOR dehydrogenase activity in lung lysates was determined from the decrease in NADH absorbance at 340 nm after the addition of GSNO per Liu et al. The decrease in absorbance at 340 nm was calculated by subtracting the values of the negative controls from the absorbance in duplicate samples. The resulting GSNOR activity was expressed as a ratio of the absorbance decrease in individual samples to the average absorbance decrease in AA samples and plotted as scatter plots in bars (mean±SD). ANOVA was used to analyze differences between means with an appropriate post hoc test (AA, SS+PBS, SS+hE-HMGB1-BP, and SS+KYC: n=9 each test group, *=p<0.05).
GSNOR dehydrogenase activity was determined from NADH consumption per Liu et al. Briefly, frozen mouse lungs were lysed in Tris buffer (20 mM, pH 8.0) containing EDTA (0.5 mM) and protease inhibitors. Lysates were centrifuged (4 °C, 16,000 g, 10 min), and supernatant protein was determined with Pierce BCA protein assay kit (ThermoFisher 23225). Lysate aliquots (0.5 mg/ml) and 200 μM NADH (Sigma N8129) were added in duplicate to a 96-well UV transparent plate (ThermoFisher 8404). Lung GSNOR Enzyme activity was started by adding GSNO (Sigma 487920) to the assay mix (final concentration=400 μM in 200 μL). Tris buffer and 10 μg/mL recombinant GSNOR (ProSpec ENZ-595) were used as negative and positive controls, respectively. The plate was incubated at room temperature for 30 min, and absorbance at 340 nm was measured using a ThermoFisher UV/Vis microplate reader. The decrease in absorbance at 340 nm was calculated by subtracting the values of the negative controls from those of the samples. The resulting GSNOR activity was expressed as a ratio of the absorbance decrease in individual samples to the average absorbance decrease in AA samples.

## CC[C@H](C)[C@H](NC(=O)CNC(=O)[C@H](CCCCN)NC(=O)[C@@H](NC(=O)[C@H](CC(=O)O)NC(=O)[C@H](Cc1ccccc1)NC(=O)[C@H](CC(N)=O)NC(=O)[C@H](CC(N)=O)NC(=O)[C@H](C)NC(=O)[C@H](CO)NC(=O)[C@H](Cc1c[nH]cn1)NC(=O)[C@H](C)NC(=O)CNC(=O)CNC(=O)[C@H](CCCNC(=N)N)NC(=O)[C@H](CC(C)C)NC(=O)[C@H](CC(C)C)NC(=O)[C@H](CCCNC(=N)N)NC(=O)[C@H](CCCCN)NC(=O)[C@H](CCCNC(=N)N)NC(=O)[C@H](CC(C)C)NC(=O)[C@H](CCCCN)NC(=O)[C@H](CCCNC(=N)N)NC(=O)[C@H](CC(C)C)NC(C)=O)C(C)C)C(N)=O
  lung GSNOR levels and activity (in words): reducing GSNOR levels and activity
  lung GSNOR dehydrogenase activity versus AA mice: essentially the same as the GSNOR dehydrogenase activity in lung homogenates from AA mice
  decrease of lung GSNOR dehydrogenase activity: approximately 18%

## CC(=O)N[C@@H](CCCCN)C(=O)N[C@@H](Cc1ccc(O)cc1)C(=O)N[C@@H](CS)C(N)=O
  lung GSNOR dehydrogenase activity versus AA mice: essentially the same as the GSNOR dehydrogenase activity in lung homogenates from AA mice
  decrease of lung GSNOR dehydrogenase activity: approximately 18%
